Where two headings read alike, the source gives them in different places.
Columns and labels:
[1] = rat, in vivo, 30240 min; cited from earlier work

solubility at time of manufacture (pH 3.5): soluble
solubility at 1 month (pH 5): insoluble
solubility at time of manufacture (pH 5): soluble
Substance: calcium glycerophosphate [CaGP]
relative calcium bioavailability [1]: 106%
